Tests used:
[1] = tested on: SMARCA2/A4 deficient cell group versus SMARCA2/A4 wild-type cell group; experiment: Experiment comparing sensitivity depending on the presence/absence of SMARCA2/A4; type: cell-based; details: 6 days culture, CellTiter-Glo, FIG. 8; result in words
Excerpt: Cytotoxic activity of a CBP/P300 inhibitor on SMARCA2/A4 deficient cells, i.e., A427 cells (pulmonary adenocarcinoma derived), H23 cells (pulmonary adenocarcinoma derived), COV434 cells (ovarian granulosa tumor derived), TOV112D cells (small cell ovarian cancer derived), SW13 cells (adrenocortical cancer derived) and DMS114 cells (small cell lung cancer derived), and SMARCA2/A4 wild-type cells, i.e., H1048 cells, H460 cells, 786-O cells, H2228 cells, H2009 cells, and H358 cells was compared.

Chains of the proteins cited; added tags and fusions are not shown. Residues count along the entry.
UniProt Q92793, 1085-1192: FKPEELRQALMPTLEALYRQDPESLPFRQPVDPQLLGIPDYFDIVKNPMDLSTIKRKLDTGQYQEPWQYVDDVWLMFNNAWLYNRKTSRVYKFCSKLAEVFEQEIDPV

[2] = tested on: SS18-SSX fusion cancer cell group versus SS18/SSX wild-type cell group; experiment: Experiment comparing sensitivity depending on the presence/absence of SS18-SSX fusion gene; type: cell-based; details: 6 days culture, CellTiter-Glo, FIG. 11; result in words
Excerpt: Cytotoxic activity of a CRP/P300 inhibitor on SS18-SSX fusion cancer cells, i.e., Aska-SS cells (synovial sarcoma derived), Fuji cells (synovial sarcoma derived), YaFuss cells (synovial sarcoma derived), HS-SY-II cells (synovial sarcoma derived), and Yamato-SS cells (synovial sarcoma derived), and SS18/SSX wild-type cells, i.e., H1048 cells, H460 cells, 786-O cells, H2228 cells, H2009 cells, and H358 cells, was compared.

[3] = molecular target: CBP bromodomain (Homo sapiens (Human), UniProt Q92793); experiment: BRD inhibition experiment, CBP bromodomain TR-FRET Assay Kit
[4] = tested on: JMU-RTK-2 cells (malignant rhabdoid tumor derived, SMARCB1 deficient); experiment: Selectivity in cell growth suppression, JMU-RTK-2 cells

Structure (SMILES): CO[C@H]1CC[C@H](n2c([C@@H]3CCCC(=O)N3c3ccc(F)c(F)c3)nc3cc(-c4c(C)noc4C)ccc32)CC1 [CCS-1477]
- IC50 value for the SMARCA2/A4 deficient cell group compared with the SMARCA2/A4 wild-type cell group [1]: less than the IC50 value for the SMARCA2/A4 wild-type cell group
- IC50 value for the SS18-SSX fusion cancer cell group compared with the SS18/SSX wild-type cell group [2]: less than the IC50 value for the SS18/SSX wild-type cell group

Structure (SMILES): COc1ccc(CCc2nc3cc(-c4c(C)noc4C)ccc3n2C[C@H](C)N2CCOCC2)cc1Cl [SGC-CBP30, reference compound]
- inhibition of BRD function [3]: inhibit BRD function

Structure (SMILES): CO[C@H]1CC[C@H](n2c([C@@H]3CCCC(=O)N3c3ccc(F)c(F)c3)nc3cc(-c4c(C)noc4C)ccc32)CC1 [Compound 9]
- IC50 [3]: < 25 nM
- Selective Index [4]: 5.6
